Data from ChEMBL document CHEMBL1146709, “Tetrahydroisoquinoline based sulfonamide hydroxamates as potent matrix metalloproteinase inhibitors” (Bioorg Med Chem Lett, 2004).

Chains of the proteins cited; added tags and fusions are not shown. Lines headed by an entry give the natural chain unless they say otherwise; changes in a name come on top.
UniProt P51511: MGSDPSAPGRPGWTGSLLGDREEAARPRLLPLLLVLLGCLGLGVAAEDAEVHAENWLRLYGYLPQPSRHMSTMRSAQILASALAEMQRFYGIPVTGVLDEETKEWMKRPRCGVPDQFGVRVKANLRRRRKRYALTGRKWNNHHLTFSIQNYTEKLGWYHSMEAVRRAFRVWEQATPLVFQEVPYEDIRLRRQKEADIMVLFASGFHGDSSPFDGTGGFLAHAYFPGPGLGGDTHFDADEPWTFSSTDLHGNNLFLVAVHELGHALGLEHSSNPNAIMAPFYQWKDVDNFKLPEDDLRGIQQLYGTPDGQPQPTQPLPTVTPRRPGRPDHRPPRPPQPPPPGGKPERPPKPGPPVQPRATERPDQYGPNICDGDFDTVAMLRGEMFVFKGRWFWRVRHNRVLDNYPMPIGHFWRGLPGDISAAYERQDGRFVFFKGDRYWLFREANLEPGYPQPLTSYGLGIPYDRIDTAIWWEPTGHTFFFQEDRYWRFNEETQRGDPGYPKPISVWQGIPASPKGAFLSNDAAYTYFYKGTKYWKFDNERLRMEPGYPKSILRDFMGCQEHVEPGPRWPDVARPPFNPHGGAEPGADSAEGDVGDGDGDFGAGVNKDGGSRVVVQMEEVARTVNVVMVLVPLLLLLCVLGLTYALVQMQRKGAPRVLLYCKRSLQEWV

Target: Matrix metalloproteinase-15 (Homo sapiens, UniProt P51511)
Test: Inhibition of matrix metalloprotease-15 (MMP-15)

- IC50: 6 nM
Structure (SMILES): CNC(=O)[C@H](Cc1c[nH]c2ccccc12)NC(=O)[C@@H](CC(=O)NO)CC(C)C [ILOMASTAT]
